{
  "source": "paper PMC5925453",
  "about": "(EBioMedicine, 2018)",
  "system": "EGFR downstream signal transduction pathways",
  "assay": "Western blotting, gefitinib with TPX-0005, PC9 cell line",
  "settings": "PC9 cells; gefitinib 0.05 μM; 24 h",
  "data": [
    {"smiles": "COc1cc2ncnc(Nc3ccc(F)c(Cl)c3)c2cc1OCCCN1CCOCC1", "note": "[Gefitinib]", "values": [
      {"measurement": "EGFR, ERK1/2 and AKT phosphorylation", "value": "suppressed"}
    ]}
  ]
}
